Results published in patent US12410228B2, “Insulin analogs” (UNIVERSITY OF UTAH RESEARCH FOUNDATION, priority 2016, dated 2025).

Sequences of proteins named here, by UniProt entry; tags and fusion partners are left off. Residues count along the entry.
UniProt P06213, 28-758 limits assumed: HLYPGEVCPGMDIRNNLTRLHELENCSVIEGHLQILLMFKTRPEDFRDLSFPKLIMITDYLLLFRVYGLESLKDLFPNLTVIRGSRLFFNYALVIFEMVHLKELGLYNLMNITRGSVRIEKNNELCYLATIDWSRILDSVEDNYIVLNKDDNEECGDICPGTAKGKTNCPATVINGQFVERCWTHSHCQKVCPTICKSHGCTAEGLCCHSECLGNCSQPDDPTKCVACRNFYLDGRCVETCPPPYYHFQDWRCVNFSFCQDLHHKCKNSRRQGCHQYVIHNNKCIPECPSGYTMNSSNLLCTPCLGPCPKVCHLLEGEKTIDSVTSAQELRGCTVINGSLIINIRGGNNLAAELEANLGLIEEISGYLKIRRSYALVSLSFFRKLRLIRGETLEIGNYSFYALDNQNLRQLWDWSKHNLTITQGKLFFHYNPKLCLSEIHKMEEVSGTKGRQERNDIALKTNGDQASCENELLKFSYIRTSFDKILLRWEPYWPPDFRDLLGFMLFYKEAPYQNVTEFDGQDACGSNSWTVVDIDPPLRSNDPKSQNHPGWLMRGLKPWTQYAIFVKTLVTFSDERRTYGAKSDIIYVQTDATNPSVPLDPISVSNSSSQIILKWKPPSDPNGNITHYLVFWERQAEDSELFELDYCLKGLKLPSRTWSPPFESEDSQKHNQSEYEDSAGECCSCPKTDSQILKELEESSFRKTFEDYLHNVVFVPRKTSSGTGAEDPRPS
UniProt P06213, 763-1382 partner limits assumed: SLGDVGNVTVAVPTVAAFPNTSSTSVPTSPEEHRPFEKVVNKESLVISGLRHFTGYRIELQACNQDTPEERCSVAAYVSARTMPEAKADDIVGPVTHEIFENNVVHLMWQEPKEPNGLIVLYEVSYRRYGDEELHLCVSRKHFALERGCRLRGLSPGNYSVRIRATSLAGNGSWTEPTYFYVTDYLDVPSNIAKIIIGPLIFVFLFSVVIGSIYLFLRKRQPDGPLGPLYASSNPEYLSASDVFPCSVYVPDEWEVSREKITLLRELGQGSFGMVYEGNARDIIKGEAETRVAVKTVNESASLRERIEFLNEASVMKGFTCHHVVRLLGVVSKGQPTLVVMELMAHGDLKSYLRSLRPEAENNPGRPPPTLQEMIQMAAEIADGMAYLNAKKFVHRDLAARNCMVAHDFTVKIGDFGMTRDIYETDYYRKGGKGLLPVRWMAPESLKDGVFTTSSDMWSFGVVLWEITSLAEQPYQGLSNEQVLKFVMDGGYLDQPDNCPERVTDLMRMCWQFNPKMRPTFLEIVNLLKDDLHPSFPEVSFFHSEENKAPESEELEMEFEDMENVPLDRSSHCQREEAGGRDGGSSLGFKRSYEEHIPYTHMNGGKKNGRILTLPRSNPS

Legend:
[1] = type: physicochemical; conditions: pH 7.4
human IR (isoform B) = target: T1, human IR (isoform B) (Homo sapiens, UniProt P06213); type: binding
T1 construct: expressed in transfected cells; host or cells: R- IR-B cells, lysed with Triton X-100 and captured with anti-IR antibody 83-7; This comes from the general description of the Denley et al. 2004 format

human IR-B = target: T2, human IR-B (Homo sapiens, UniProt P06213); test: cell-based
T2 construct: expressed in transfected cells; host or cells: NIH 3T3 mouse fibroblasts overexpressing human IR-B (puromycin selection)

Compound: CC[C@H](C)[C@@H]1NC(=O)[C@H](CC(C(=O)O)C(=O)O)NC(=O)[C@H](CO)NC(=O)CNC(=O)[C@@H](NC(=O)[C@H](CCCNC(=N)N)NC(=O)[C@H](Cc2c[nH]cn2)NC(=O)[C@H](CCCCN)NC(=O)[C@@H]2C[C@@H](O)CN2C(=O)[C@@H](NC(=O)[C@H](CC(=O)O)NC(=O)[C@H](Cc2ccccc2)NC(=O)[C@@H](N)[C@@H](C)O)[C@@H](C)O)CSSC[C@@H]2NC(=O)[C@@H](NC(=O)[C@H](Cc3c[nH]cn3)NC(=O)[C@H](CC(C(=O)O)C(=O)O)NC(=O)[C@@H](NC(=O)[C@@H](NC(=O)CN)C(C)C)C(C)C)CSSC[C@H](NC(=O)[C@@H]3CCCN3C(=O)[C@H](CCCNC(=N)N)NC(=O)[C@H](Cc3c[nH]cn3)NC2=O)C(=O)N[C@@H](CO)C(=O)N[C@@H](CC(N)=O)C(=O)N[C@@H](C)C(=O)N[C@@H](CCC(=O)O)C(=O)N[C@@H](Cc2ccccc2)C(=O)N[C@@H](CCCCN)C(=O)N[C@@H](CCCCN)C(=O)N[C@@H](Cc2ccc(O)cc2)C(=O)N[C@H](C(N)=O)CSSC[C@@H](C(=O)N[C@@H](Cc2ccc(O)cc2)C(=O)N[C@@H](CCCNC(=N)N)C(=O)O)NC(=O)[C@H](CC(C)C)NC(=O)[C@H](CC(=O)O)NC(=O)[C@H](CCSC)NC(=O)[C@H](Cc2ccc(O)cc2)NC(=O)[C@H](CO)NC(=O)[C@H](CC(N)=O)NC(=O)[C@H]([C@@H](C)O)NC1=O [Con-Ins G1]
- apparent MW of single sedimenting species [1]: 5380 ± 55 g/mol
- self-association state in solution [1]: predominantly monomeric
- activity / affinity at human IR relative to human insulin (fold less) (human IR (isoform B)): 30 fold
- EC50 (human IR-B): 6.03 nM
- activity in Akt phosphorylation assay relative to hIns (human IR-B): ca ten-fold less active
